The source of these data is US11229625B2, “Titration of Cebranopadol” (dated 2022).

Like-named read-outs stand apart in the source and are kept apart here.

The test system of series [1] is CNS and the respiratory system. The following applies: cited from earlier work.
Series [2] in a line: clinical trials of Cebranopadol, treatment emergent adverse events.
Series [3] in a line: population pharmacokinetic-pharmacodynamic model of clinical data, Low Back pain population. The following applies: daily dose of 100 μg, FIG. 1.
Series [4] concerns rat models of acute and chronic pain. Conditions: cited from earlier work.

In the case of `CN(C)[C@]1(c2ccccc2)CC[C@]2(CC1)OCCc1c3cc(F)ccc3[nH]c12`, the therapeutic window result in series [1] (compared with Morphine) was “broader therapeutic window”. Also, in series [1] (rats, doses higher than those required for inducing analgesia), the “effect on motor coordination and respiratory function” value was “affects neither motor coordination nor respiratory function”. The “tolerability in clinical trials” value in series [2] is reported as “well tolerated”. Besides, in series [3], the “placebo corrected effect, therapeutic effectiveness of dose” value is “subtherapeutic”. Also, in series [4] (in comparison with selective MOP receptor agonists), the “potency in chronic neuropathic versus acute nociceptive pain models” value is listed as “more potent in models of chronic neuropathic than acute nociceptive pain”. Besides, the “ED50, antinociceptive and antihypersensitive effects” value is 0.0251 mg/kg in series [4] (rat models of acute and chronic pain, oral administration); 0.0005 to 0.0056 mg/kg in series [4] (several rat models of acute and chronic pain, intravenous administration).
